Measurements published in PubChem BioAssay AID630 (Emory University Molecular Libraries Screening Center, 2007).
Only a part is listed here, and it is no random draw. Some results for these compounds are left out of this collection, so the calls shown say nothing about other tests. Active and inactive are the calls of the source.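 The calls were made as follows: active = compounds that reduce the energy-transfer binding signal between the protein and its labelled peptide by more than half; inactive = the rest.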

The chains behind the UniProt entries cited, without tags or fusion partners.
UniProt P84022, whole entry: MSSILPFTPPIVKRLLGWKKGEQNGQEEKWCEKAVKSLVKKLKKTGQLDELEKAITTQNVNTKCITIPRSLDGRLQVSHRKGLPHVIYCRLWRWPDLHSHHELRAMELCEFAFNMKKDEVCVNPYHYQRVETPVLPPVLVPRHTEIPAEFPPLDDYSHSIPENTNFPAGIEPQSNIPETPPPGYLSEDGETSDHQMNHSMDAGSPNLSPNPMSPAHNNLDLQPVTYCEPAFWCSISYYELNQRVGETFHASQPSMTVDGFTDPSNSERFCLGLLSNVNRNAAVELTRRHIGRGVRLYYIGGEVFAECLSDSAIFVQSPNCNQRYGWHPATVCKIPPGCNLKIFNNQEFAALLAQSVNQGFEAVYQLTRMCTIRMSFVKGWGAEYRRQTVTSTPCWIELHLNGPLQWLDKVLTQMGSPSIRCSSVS

Target: Mothers against decapentaplegic homolog 3 (Homo sapiens) (UniProt P84022)
Test: blockers of Smad3 binding to FoxH1 – biochemical, TR-FRET, primary screen (AID 630);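 also: 0% = Smad3 plus labelled peptide maximal FRET and 100% = peptide-only background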
Conditions: TR-FRET Smad3/Dy647-FoxH1 peptide binding, europium anti-His; at 25 µM; hits give high values

SMILES	inhibition
CN(C)c1cccc(C(=O)NCC2(N(C)C)CCCCC2)c1	inactive: 3.65%
C=C(C)C#C[C@@](O)(C(=O)OC1CCN(C)CC1)c1ccccc1	active: 82.2%
O=C(OC1CN2CCC1CC2)C(CO)(c1ccccc1)c1ccccc1 (centres undefined)	inactive: -3.37%
CN1CCC[C@H](OC(=O)[C@](O)(c2ccccc2)C2CCCC2)C1	inactive: -4.93%
